From patent US6680322B2, “Compounds specific to adenosine A1 receptors and uses thereof” (OSI Pharmaceuticals, Inc., priority 1999, dated 2004)

Molecular target: A2a receptor (Homo sapiens, UniProt P29274)
Assay: Yeast-based A2a receptor assay (antagonist specificity)
Type: cell-based
Parameters: expressed in transfected cells; host or cells: Saccharomyces cerevisiae (CY8342-derived strains / CY8362, rat Gαs mutants E10K, D229S or E10K+D229S)

Question: How did the “A2a receptor antagonist activity” value turn out when CCCn1c(=O)c2[nH]c(C3CCCC3)nc2n(CCC)c1=O was run?
Answer: relatively inert
